Data published in ChEMBL document CHEMBL2218924, “A broad activity screen in support of a chemogenomic map for kinase signalling research and drug discovery” (Biochem J, 2013).
For some assays here: The strong results were mostly taken out for another list; the other results follow. No rule for the calls is given here. The entries are a selection whose mix differs from that of the whole data set.

The chains behind the UniProt entries cited, without tags or fusion partners. Where a name states a change or a piece, a line headed by the entry shows the natural chain unless it says otherwise.
UniProt P36897: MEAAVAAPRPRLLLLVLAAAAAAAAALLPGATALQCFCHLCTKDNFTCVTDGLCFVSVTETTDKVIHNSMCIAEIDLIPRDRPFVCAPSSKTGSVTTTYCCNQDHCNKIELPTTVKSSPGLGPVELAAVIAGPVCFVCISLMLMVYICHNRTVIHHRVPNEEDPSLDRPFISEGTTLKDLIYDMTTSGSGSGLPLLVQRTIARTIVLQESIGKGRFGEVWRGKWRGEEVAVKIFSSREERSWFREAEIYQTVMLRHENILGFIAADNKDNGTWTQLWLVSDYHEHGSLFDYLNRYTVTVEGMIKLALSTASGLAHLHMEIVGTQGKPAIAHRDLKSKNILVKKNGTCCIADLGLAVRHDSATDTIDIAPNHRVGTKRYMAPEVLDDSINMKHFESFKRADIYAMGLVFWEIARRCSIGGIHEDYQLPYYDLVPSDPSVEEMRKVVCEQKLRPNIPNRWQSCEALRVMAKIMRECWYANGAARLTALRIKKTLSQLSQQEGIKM
UniProt P14616: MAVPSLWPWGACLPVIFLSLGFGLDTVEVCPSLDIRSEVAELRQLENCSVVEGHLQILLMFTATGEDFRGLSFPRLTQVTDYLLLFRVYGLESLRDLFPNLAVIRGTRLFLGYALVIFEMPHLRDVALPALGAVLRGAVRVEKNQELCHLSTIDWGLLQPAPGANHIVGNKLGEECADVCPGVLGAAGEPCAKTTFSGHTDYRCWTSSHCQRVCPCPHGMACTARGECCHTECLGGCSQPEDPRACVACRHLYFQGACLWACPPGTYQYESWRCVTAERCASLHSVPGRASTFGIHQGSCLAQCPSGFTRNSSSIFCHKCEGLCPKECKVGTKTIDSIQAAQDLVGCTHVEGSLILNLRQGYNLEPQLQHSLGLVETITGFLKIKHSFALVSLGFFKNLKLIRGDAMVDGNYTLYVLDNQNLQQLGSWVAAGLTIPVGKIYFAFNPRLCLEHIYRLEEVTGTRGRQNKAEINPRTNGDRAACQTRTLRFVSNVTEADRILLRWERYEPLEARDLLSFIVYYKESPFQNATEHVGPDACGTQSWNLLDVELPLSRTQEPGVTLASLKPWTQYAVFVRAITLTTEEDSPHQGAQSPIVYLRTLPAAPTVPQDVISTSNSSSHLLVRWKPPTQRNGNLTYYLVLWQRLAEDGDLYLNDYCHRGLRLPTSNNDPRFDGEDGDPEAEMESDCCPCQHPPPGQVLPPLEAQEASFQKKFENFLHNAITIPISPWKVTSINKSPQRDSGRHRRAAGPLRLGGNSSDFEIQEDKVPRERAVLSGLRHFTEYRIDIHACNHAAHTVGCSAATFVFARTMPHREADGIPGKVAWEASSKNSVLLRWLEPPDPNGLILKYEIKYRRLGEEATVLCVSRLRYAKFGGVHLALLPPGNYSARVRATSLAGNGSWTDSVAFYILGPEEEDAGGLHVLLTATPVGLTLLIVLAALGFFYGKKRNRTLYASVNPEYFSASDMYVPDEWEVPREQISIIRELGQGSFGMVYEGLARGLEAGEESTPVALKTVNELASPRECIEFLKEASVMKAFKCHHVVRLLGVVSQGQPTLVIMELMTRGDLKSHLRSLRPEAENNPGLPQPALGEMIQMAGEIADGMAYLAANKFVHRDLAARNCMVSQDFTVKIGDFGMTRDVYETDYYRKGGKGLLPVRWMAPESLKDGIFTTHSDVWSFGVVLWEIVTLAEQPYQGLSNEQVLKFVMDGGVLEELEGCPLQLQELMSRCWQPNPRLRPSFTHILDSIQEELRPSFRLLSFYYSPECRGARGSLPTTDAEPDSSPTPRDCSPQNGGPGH
UniProt O60674: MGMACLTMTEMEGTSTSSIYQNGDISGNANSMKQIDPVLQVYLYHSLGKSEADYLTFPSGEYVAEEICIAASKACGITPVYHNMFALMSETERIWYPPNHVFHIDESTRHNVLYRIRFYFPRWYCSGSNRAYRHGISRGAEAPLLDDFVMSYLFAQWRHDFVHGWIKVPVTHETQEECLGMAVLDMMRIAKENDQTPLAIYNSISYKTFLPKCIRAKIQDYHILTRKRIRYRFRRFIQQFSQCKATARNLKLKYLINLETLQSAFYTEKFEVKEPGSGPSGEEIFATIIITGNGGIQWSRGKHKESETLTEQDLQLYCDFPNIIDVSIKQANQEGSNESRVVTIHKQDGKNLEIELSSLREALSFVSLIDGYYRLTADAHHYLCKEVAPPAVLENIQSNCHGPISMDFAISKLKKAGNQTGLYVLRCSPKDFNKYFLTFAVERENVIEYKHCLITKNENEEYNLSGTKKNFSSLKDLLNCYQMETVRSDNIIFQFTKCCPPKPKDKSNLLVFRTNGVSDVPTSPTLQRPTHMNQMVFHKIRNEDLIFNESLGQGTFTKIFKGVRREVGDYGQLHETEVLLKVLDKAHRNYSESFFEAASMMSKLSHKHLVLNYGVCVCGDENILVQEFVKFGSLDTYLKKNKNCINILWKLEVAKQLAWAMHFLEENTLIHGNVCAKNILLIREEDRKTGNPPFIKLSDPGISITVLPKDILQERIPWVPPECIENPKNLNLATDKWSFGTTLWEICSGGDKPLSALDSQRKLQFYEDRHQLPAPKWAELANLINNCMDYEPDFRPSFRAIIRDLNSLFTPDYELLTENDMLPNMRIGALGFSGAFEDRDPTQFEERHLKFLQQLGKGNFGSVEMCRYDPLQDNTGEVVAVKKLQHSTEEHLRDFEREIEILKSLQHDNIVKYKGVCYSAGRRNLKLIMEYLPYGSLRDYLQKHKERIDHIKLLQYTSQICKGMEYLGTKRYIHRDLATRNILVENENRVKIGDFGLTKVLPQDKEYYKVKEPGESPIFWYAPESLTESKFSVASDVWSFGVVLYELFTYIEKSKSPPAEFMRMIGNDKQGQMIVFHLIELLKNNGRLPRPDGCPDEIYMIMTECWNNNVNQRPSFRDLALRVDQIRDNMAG
UniProt P53667: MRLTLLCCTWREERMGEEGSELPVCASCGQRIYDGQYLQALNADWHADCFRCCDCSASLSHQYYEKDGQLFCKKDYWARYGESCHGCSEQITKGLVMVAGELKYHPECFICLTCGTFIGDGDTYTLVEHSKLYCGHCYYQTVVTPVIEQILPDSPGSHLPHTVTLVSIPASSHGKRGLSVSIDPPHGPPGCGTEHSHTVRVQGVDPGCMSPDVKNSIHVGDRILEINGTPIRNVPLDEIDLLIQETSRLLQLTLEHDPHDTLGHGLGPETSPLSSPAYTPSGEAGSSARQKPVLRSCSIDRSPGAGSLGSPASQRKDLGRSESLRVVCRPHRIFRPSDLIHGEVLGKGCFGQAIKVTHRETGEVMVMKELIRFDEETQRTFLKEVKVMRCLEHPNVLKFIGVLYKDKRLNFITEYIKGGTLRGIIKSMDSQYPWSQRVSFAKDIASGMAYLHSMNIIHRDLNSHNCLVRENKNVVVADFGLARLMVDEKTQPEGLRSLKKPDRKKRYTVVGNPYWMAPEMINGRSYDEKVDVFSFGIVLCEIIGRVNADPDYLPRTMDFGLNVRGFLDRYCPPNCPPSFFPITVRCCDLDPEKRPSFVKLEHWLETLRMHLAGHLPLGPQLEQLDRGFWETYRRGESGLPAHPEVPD
UniProt P28482, whole entry: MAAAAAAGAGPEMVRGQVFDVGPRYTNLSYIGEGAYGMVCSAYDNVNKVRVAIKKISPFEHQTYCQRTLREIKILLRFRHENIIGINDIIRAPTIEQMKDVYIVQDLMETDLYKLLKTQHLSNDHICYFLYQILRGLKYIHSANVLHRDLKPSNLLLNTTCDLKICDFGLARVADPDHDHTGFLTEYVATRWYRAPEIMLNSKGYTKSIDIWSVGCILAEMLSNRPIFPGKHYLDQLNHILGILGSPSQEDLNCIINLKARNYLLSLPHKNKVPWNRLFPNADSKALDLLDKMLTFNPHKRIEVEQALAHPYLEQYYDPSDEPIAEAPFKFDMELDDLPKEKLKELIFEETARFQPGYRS
UniProt P49137, whole entry, looked up: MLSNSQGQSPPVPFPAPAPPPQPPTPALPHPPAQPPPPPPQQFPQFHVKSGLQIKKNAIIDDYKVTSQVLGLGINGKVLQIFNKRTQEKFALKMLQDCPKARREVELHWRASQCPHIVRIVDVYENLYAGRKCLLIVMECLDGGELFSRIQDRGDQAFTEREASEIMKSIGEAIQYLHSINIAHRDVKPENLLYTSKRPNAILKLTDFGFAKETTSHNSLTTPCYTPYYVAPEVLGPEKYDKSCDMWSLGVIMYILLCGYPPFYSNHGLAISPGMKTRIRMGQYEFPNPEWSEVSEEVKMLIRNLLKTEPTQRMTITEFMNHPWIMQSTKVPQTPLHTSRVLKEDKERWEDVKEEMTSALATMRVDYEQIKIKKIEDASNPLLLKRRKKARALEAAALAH
UniProt Q9Y6E0: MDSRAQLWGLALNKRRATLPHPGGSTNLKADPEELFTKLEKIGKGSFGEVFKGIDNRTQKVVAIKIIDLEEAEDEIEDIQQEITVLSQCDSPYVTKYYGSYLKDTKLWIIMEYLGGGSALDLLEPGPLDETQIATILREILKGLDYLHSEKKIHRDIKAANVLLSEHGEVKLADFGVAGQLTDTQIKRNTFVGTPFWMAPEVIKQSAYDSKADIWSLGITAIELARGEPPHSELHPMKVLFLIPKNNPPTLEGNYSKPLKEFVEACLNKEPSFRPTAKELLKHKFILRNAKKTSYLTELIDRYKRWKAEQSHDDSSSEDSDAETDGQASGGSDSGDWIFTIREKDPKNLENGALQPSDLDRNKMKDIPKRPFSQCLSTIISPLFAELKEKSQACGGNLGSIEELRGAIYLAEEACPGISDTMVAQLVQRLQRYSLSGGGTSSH
UniProt Q8NG66: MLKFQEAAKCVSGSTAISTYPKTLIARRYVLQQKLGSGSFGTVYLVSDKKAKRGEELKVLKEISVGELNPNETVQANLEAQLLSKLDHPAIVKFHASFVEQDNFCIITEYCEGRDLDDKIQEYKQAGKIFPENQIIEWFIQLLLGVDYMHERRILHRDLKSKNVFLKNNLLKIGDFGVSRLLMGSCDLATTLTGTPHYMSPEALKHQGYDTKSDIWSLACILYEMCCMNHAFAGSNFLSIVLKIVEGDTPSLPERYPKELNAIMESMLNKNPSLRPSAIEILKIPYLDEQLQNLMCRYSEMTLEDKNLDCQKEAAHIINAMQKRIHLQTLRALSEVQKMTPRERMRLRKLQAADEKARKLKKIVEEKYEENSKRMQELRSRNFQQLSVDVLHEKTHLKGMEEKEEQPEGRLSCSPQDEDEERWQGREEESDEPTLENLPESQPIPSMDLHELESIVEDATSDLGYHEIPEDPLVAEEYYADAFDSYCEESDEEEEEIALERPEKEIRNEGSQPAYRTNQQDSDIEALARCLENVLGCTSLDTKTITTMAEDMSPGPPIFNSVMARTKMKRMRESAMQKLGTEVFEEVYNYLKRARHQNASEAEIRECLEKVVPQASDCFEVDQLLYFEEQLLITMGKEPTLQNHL
UniProt P51955: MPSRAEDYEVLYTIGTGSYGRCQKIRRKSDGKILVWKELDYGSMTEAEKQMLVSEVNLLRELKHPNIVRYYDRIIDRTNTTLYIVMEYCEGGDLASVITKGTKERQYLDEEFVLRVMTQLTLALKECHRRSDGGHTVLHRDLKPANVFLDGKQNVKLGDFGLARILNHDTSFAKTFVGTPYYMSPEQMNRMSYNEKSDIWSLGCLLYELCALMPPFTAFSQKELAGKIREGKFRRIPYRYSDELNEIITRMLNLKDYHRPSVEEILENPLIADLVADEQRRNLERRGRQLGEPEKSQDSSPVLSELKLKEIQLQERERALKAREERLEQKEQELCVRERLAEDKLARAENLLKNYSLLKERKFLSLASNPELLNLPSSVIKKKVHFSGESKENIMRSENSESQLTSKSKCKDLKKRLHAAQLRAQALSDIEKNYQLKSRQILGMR
UniProt P42680: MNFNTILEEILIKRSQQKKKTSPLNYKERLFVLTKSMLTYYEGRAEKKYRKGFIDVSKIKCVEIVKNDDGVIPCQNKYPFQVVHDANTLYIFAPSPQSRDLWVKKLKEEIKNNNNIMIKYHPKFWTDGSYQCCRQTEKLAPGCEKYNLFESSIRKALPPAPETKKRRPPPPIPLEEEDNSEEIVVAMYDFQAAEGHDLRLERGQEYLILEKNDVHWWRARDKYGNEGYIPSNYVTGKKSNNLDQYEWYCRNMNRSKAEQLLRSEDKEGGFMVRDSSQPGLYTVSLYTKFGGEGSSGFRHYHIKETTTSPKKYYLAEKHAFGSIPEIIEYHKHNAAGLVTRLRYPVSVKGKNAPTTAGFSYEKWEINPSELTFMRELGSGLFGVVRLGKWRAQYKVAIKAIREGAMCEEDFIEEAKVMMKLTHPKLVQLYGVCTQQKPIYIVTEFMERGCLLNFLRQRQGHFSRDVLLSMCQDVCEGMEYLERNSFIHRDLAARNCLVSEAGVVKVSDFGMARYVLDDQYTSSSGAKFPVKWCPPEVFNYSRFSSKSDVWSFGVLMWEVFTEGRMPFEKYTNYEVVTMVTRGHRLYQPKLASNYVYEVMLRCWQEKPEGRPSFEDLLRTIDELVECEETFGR

How the values were obtained:
[1] = target: Receptor-interacting serine/threonine-protein kinase 2 (Homo sapiens) (UniProt O43353); details: at 10 µM;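 also: residual kinase activity of the enzyme remaining, given as percent of control, assayed in 8 mM MOPS pH 7.0 buffer with 0.2 mM EDTA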
[2] = target: Rho-associated protein kinase 2 (Homo sapiens) (UniProt O75116); details: at 10 µM
[3] = target: Macrophage-stimulating protein receptor (Homo sapiens) (UniProt Q04912); details: at 1 µM
[4] = target: Ribosomal protein S6 kinase alpha-6 (Homo sapiens) (UniProt Q9UK32); details: at 1 µM
[5] = target: Serine/threonine-protein kinase Sgk3 (Homo sapiens) (UniProt Q96BR1); details: at 1 µM
[6] = target: Serine/threonine-protein kinase Sgk3 (Homo sapiens) (UniProt Q96BR1); details: at 10 µM
[7] = target: Serine/threonine-protein kinase SIK1 (Homo sapiens) (UniProt P57059); details: at 10 µM
[8] = target: SRSF protein kinase 2 (Homo sapiens) (UniProt P78362); details: at 1 µM
[9] = target: Mitogen-activated protein kinase kinase kinase 7 (Homo sapiens) (UniProt O43318); details: at 10 µM
[10] = target: Serine/threonine-protein kinase TAO1 (Homo sapiens) (UniProt Q7L7X3); details: at 10 µM
[11] = target: Serine/threonine-protein kinase TAO3 (Homo sapiens) (UniProt Q9H2K8); details: at 1 µM
[12] = target: Serine/threonine-protein kinase TAO3 (Homo sapiens) (UniProt Q9H2K8); details: at 10 µM
[13] = target: Serine/threonine-protein kinase TBK1 (Homo sapiens) (UniProt Q9UHD2); details: at 1 µM
[14] = target: TGF-beta receptor type-1 (Homo sapiens) (UniProt P36897); details: at 1 µM
[15] = target: Insulin-like growth factor 1 receptor (Homo sapiens) (UniProt P08069); details: at 10 µM
[16] = target: Inhibitor of nuclear factor kappa-B kinase subunit alpha (Homo sapiens) (UniProt O15111); details: at 1 µM
[17] = target: Inhibitor of nuclear factor kappa-B kinase subunit alpha (Homo sapiens) (UniProt O15111); details: at 10 µM
[18] = target: Insulin receptor-related protein (Homo sapiens) (UniProt P14616); details: at 10 µM
[19] = target: Tyrosine-protein kinase ITK/TSK (Homo sapiens) (UniProt Q08881); details: at 10 µM
[20] = target: Tyrosine-protein kinase JAK2 (Homo sapiens) (UniProt O60674); details: at 10 µM
[21] = target: Tyrosine-protein kinase JAK3 (Homo sapiens) (UniProt P52333); details: at 10 µM
[22] = target: LIM domain kinase 1 (Homo sapiens) (UniProt P53667); details: at 10 µM
[23] = target: Serine/threonine-protein kinase 10 (Homo sapiens) (UniProt O94804); details: at 10 µM
[24] = target: Tyrosine-protein kinase Lck (Homo sapiens) (UniProt P06239); details: at 10 µM
[25] = target: Tyrosine-protein kinase Lyn (Homo sapiens) (UniProt P07948); details: at 1 µM
[26] = target: Mitogen-activated protein kinase 3 (Homo sapiens) (UniProt P27361); details: at 10 µM
[27] = target: Mitogen-activated protein kinase 1 (Homo sapiens) (UniProt P28482); details: at 10 µM
[28] = target: MAP kinase-activated protein kinase 2 (Homo sapiens) (UniProt P49137); details: at 10 µM
[29] = target: Dual specificity mitogen-activated protein kinase kinase 1 (Homo sapiens) (UniProt Q02750); details: at 1 µM
[30] = target: Dual specificity mitogen-activated protein kinase kinase 6 (Homo sapiens) (UniProt P52564); details: at 1 µM
[31] = target: Serine/threonine-protein kinase MRCK beta (Homo sapiens) (UniProt Q9Y5S2); details: at 10 µM
[32] = target: Ribosomal protein S6 kinase alpha-5 (Homo sapiens) (UniProt O75582); details: at 10 µM
[33] = target: Serine/threonine-protein kinase 3 (Homo sapiens) (UniProt Q13188); details: at 10 µM
[34] = target: Serine/threonine-protein kinase 24 (Homo sapiens) (UniProt Q9Y6E0); details: at 10 µM
[35] = target: Serine/threonine-protein kinase Nek11 (Homo sapiens) (UniProt Q8NG66); details: at 1 µM
[36] = target: Serine/threonine-protein kinase Nek2 (Homo sapiens) (UniProt P51955); details: at 1 µM
[37] = target: Serine/threonine-protein kinase Nek2 (Homo sapiens) (UniProt P51955); details: at 10 µM
[38] = target: Serine/threonine-protein kinase tousled-like 2 (Homo sapiens) (UniProt Q86UE8); details: at 10 µM
[39] = target: Testis-specific serine/threonine-protein kinase 1 (Homo sapiens) (UniProt Q9BXA7); details: at 10 µM
[40] = target: Testis-specific serine/threonine-protein kinase 2 (Homo sapiens) (UniProt Q96PF2); details: at 1 µM
[41] = target: Testis-specific serine/threonine-protein kinase 2 (Homo sapiens) (UniProt Q96PF2); details: at 10 µM
[42] = target: Tyrosine-protein kinase Tec (Homo sapiens) (UniProt P42680); details: at 1 µM
[43] = target: High affinity nerve growth factor receptor (Homo sapiens) (UniProt P04629); details: at 1 µM
[44] = target: Serine/threonine-protein kinase ULK3 (Homo sapiens) (UniProt Q6PHR2); details: at 10 µM
[45] = target: Death-associated protein kinase 3 (Homo sapiens) (UniProt O43293); details: at 1 µM
[46] = target: Mast/stem cell growth factor receptor Kit (Homo sapiens) (UniProt P10721); details: at 10 µM
[47] = target: Serine/threonine-protein kinase mTOR (Homo sapiens) (UniProt P42345); details: at 10 µM
[48] = target: Serine/threonine-protein kinase mTOR (Homo sapiens) (UniProt P42345); details: at 1 µM
[49] = target: Serine/threonine-protein kinase mTOR (Homo sapiens) (UniProt P42345); details: at 10 µM; remark: listed apart in the source
[50] = target: T1, Serine/threonine-protein kinase Nek6 (Homo sapiens) (UniProt Q9HC98); details: at 1 µM
T1 sequence (whole entry): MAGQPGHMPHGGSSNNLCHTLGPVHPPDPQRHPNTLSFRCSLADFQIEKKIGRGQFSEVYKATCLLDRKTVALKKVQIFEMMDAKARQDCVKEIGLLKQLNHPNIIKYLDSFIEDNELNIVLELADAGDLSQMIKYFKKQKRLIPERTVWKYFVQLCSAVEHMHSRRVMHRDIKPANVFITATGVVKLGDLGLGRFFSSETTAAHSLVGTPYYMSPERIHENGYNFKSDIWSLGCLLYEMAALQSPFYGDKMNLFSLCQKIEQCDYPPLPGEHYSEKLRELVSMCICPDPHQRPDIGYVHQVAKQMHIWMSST

[51] = target: Serine/threonine-protein kinase NLK (Homo sapiens) (UniProt Q9UBE8); details: at 10 µM
[52] = target: Serine/threonine-protein kinase PAK 4 (Homo sapiens) (UniProt O96013); details: at 1 µM
[53] = target: PAS domain-containing serine/threonine-protein kinase (Homo sapiens) (UniProt Q96RG2); details: at 1 µM
[54] = target: ALK tyrosine kinase receptor (Homo sapiens) (UniProt Q9UM73); details: at 10 µM
[55] = target: AMP-activated protein kinase (AMPK) alpha-1/beta-1/gamma-1 (Homo sapiens) (UniProt P54619+Q9Y478+Q13131); details: at 10 µM
[56] = target: cAMP-dependent protein kinase catalytic subunit alpha (Homo sapiens) (UniProt P17612); details: at 10 µM
[57] = target: Protein kinase C alpha type (Homo sapiens) (UniProt P17252); details: at 10 µM
[58] = target: Protein kinase C beta type (Homo sapiens) (UniProt P05771); details: at 10 µM
[59] = target: Protein kinase C gamma type (Homo sapiens) (UniProt P05129); details: at 10 µM
[60] = target: Protein kinase C delta type (Homo sapiens) (UniProt Q05655); details: at 1 µM
[61] = target: Protein kinase C epsilon type (Homo sapiens) (UniProt Q02156); details: at 1 µM
[62] = target: Protein kinase C epsilon type (Homo sapiens) (UniProt Q02156); details: at 10 µM

In the case of `O=C1c2ccccc2-c2nc3nnnn3nc21`, the residual activity [1] is reported as 98%, the residual activity [2] is reported as 89% and the residual activity [3] is reported as 95%. It also gave a residual activity [4] of 96%, a residual activity [5] of 97% and a residual activity [6] of 90%. It also gave a residual activity [7] of 88%, a residual activity [8] of 101% and a residual activity [9] of 102%. The residual activity [10] was 93%, the residual activity [11] was 98% and the residual activity [12] was 94%. It also gave a residual activity [13] of 97%, a residual activity [14] of 91% and a residual activity [15] of 95%. The residual activity [16] was 90%, the residual activity [17] was 86% and the residual activity [18] was 95%. It also gave a residual activity [19] of 97%, a residual activity [20] of 103% and a residual activity [21] of 86%. The residual activity [22] was 92%, the residual activity [23] was 102% and the residual activity [24] was 85%. It also gave a residual activity [25] of 84%, a residual activity [26] of 92% and a residual activity [27] of 94%. It also gave a residual activity [28] of 94%, a residual activity [29] of 99% and a residual activity [30] of 85%. For the same compound, the residual activity [31] was 88%, the residual activity [32] was 88% and the residual activity [33] was 97%. The residual activity [34] was 90%, the residual activity [35] was 97% and the residual activity [36] was 84%. For the same compound, the residual activity [37] was 85%, the residual activity [38] was 98% and the residual activity [39] was 96%. For the same compound, the residual activity [40] was 97%, the residual activity [41] was 100% and the residual activity [42] was 90%. It also gave a residual activity [43] of 96%, a residual activity [44] of 92% and a residual activity [45] of 85%. It also gave a residual activity [46] of 96%, a residual activity [47] of 93% and a residual activity [48] of 94%. For the same compound, the residual activity [49] was 95%, the residual activity [50] was inactive: 100% and the residual activity [51] was 87%. For the same compound, the residual activity [52] was 92%, the residual activity [53] was 95% and the residual activity [54] was 96%. For the same compound, the residual activity [55] was 93%, the residual activity [56] was 82% and the residual activity [57] was 93%. The residual activity [58] was 93%, the residual activity [59] was 95% and the residual activity [60] was 91%. It also gave a residual activity [61] of 88% and a residual activity [62] of 89%.
